Literature values in article PMC5655689, “Therapeutic potential of the phosphino Cu(I) complex (HydroCuP) in the treatment of solid tumors” (Scientific Reports, 2017).

Test system: OXP-resistant Lovo cells
Details: cells obtained after 22 months of selection; cited from earlier work

In the case of `O=C1[O][Pt]2([NH][C@@H]3CCCC[C@H]3[NH]2)[O]C1=O` [OXP, oxaliplatin], the “Fold resistance of OXP-resistant LoVo cells” value is given as “about 17”.
